We go through 57 compounds from PubChem BioAssay AID504845 (National Center for Advancing Translational Sciences (NCATS), 2011).

By UniProt entry, the sequences of proteins in these tests, tags left out. Where a name states a change or a piece, a line headed by the entry shows the natural chain unless it says otherwise.
UniProt P49798: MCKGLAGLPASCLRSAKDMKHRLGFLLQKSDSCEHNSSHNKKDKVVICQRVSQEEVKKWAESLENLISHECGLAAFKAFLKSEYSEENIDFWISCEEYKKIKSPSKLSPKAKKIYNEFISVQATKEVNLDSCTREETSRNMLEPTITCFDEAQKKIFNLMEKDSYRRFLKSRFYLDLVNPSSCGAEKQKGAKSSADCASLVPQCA

Structures are written as SMILES. “And” between values parts separate entries of the source, which are not always exact repeats. Equal values may be shown once. The list shows a part of the results, in another mix than the full data. Records with an inconclusive call do not appear. The source made the active and inactive calls. The call rests on the fitted dose curve; in most records, active means well fitted inhibition curve with a large enough effect; inconclusive means small, poorly fitted or top-dose-only effect; inactive means no such curve, though single readings can be large or run the other way.

The assay addresses Regulator of G-protein signaling 4 (Homo sapiens) (UniProt P49798). Description: Inhibitors of Regulator of G Protein Signaling (RGS) 4: qHTS. Further: nearly all actives have a fitted effect of over 75% in size. Particulars: Transcreener GDP fluorescence polarization, RGS4-accelerated GTP hydrolysis.
Setting [1] is: at 114 µM (top of the series) unless noted.
On the % scale 0 is the no-effect control and ±100 the full control effect.

As for `CCCCOc1ccc(C(=O)NCC2(N3CCCCC3)CCCCC2)cc1OC`, the activity change, negative = inhibition under setting [1] was inactive: -22.6%.
The same measure, in the same setting: next, `CCOC(=O)Nc1ccc([As](=O)(O)O)c(O)c1`: inactive: 4.98% [at 11.4 µM]; `CC1CCNP(=O)(N(CCCl)CCCl)O1` (stereo not given): inactive: 9.92%.
For the compound `CCC(C)N(CC(C)C)C(=S)SC(NC(C)=O)C(Cl)(Cl)Cl` (stereo not given), the activity change, negative = inhibition under setting [1] was inactive: -51.6%.
On to `CCOP(=O)(Nc1cccc2cccnc12)OCC`, for which the activity change, negative = inhibition under setting [1] was inactive: -12.9%.
The same measure, in the same setting: the same measure for `O=C(OC1CN2CCC1CC2)c1cccc([N+](=O)[O-])c1` (stereo not given): inactive: -11.1%; for `CCOC(=O)c1ccc(NC(=O)C(C)(CCl)SC)cc1` (stereo not given): inactive: 26%; for `O=C(COc1ccccc1)OC1CN2CCC1CC2` (stereo not given): inactive: -5.54%.
Same read-out and setting: next, `O=C(Nc1ccncc1[N+](=O)[O-])c1ccc([N+](=O)[O-])cc1[N+](=O)[O-]`: inactive: -0.88%.
On the same count and under the same terms, next, `COP1(=S)c2c(C)nn(CCC#N)c2N=C(c2ccc(F)cc2)N1C` (stereo not given): inactive: -1.55%.
In the case of `CN(C(=O)Cc1ccc(Cl)c(Cl)c1)[C@@H]1CCCC[C@H]1N1CCCC1`, the activity change, negative = inhibition (at 56.9 µM (top of the series)) was inactive: 1120% and the activity change, negative = inhibition (at 114 µM (top of the series)) is inactive: 4.7%.
As to `CC(C)/C=N\N=C(\N)N[N+](=O)[O-]`, the activity change, negative = inhibition under setting [1] is inactive: -17.2%.
Still for that read-out and setting: next, `CC1(CBr)Cn2c(nc3ccccc3c2=O)S1` (stereo not given): inactive: -31.2%; `COc1ccccc1CNC(=O)COC(=O)C(O)(c1ccccc1)c1ccccc1`: inactive: 18.7%; `Clc1n[nH]nc1-c1nn[nH][15n]1`: inactive: -11.1%.
On the same count and under the same terms, next, `CC(C)(C)C(=O)NC(Sc1ncccn1)C(Cl)(Cl)Cl` (stereo not given): inactive: -18%; `CCC1=CC2Cc3nc4ccc(Cl)cc4c(N)c3C(C1)C2` (stereo not given): inactive: 5.62%.
On the same count and under the same terms, the same measure for `O=P1(Nc2ccccn2)COc2ccccc2OC1`: inactive: 11% [at 11.4 µM]; for `CCOP(=O)(NC(=NC(C)c1ccccc1)NC(C)c1ccccc1)OCC` (stereo not given): inactive: 13%; for `CCOP(=O)(Nc1ccc(C)cn1)OCC`: inactive: 19.3%.
Regarding `CN(CCCl)Cc1cc(Cl)c(NC2=NCCN2)c(Cl)c1`, the activity change, negative = inhibition is inactive: -6.23% (at 56.9 µM (top of the series)) and inactive: -8.52% (at 114 µM (top of the series)).
For `Nc1cccc([As](=O)(O)c2ccccc2)c1`, the activity change, negative = inhibition under setting [1] was inactive: 25.2%.
Turning to `O=[As](O)(c1cccs1)c1cccs1`, under setting [1], the activity change, negative = inhibition was inactive: -19.5%.
In the case of `Cc1ccc(OCC(=O)OC2CN3CCC2CC3)cc1` (stereo not given), under setting [1], the activity change, negative = inhibition is inactive: -4.09%.
On the same count and under the same terms, next, `NS(=O)(=O)c1cccc(NC(=O)COC(=O)C(O)(c2ccccc2)c2ccccc2)c1`: inactive: -10.9%; `O=P1(Nc2ccc(Br)cn2)COc2ccccc2OC1`: inactive: -0.428%; `O=P1(Nc2ncccn2)COc2ccccc2OC1`: inactive: 2% [at 11.4 µM].
The same measure, in the same setting: the same measure for `CN(C)C1(CNC(=O)c2ccc(S(C)(=O)=O)cc2)CCCCC1`: inactive: 24.8%.
On the same count and under the same terms, next, `O=C(/C=C/c1ccccc1)OC1CN2CCC1CC2` (stereo not given): inactive: 20.6%.
Turning to `CCCC1OP(=O)(Nc2ccccc2)OCC1CC` (stereo not given), under setting [1], the activity change, negative = inhibition was inactive: 1.64%.
Same read-out and setting: the same measure for `Cc1nn(-c2ccccc2)c2c1P(=O)(N1CCOCC1)N(C)C(c1ccccc1)=N2` (stereo not given): inactive: 12.4%.
On to `Cc1ccc(C(=O)OC2CN3CCC2CC3)cc1` (stereo not given), for which the activity change, negative = inhibition under setting [1] is inactive: -5.15%.
Same read-out and setting: next, `CC1CCC(C(C)C)C(OP(=O)(Nc2ccccn2)c2ccccc2)C1` (stereo not given): inactive: 4.25%; `N#CCCN(C(=O)COC(=O)C(O)(c1ccccc1)c1ccccc1)c1ccc(F)cc1`: inactive: -33.3%; `CCOP1(=S)c2c(C)nn(CCC#N)c2N=C(c2ccc(F)cc2)N1C` (stereo not given): inactive: -7.65%.
For `CN(C(=O)Cc1ccccc1)[C@@H]1CC[C@]2(CCCO2)C[C@H]1N1CCCC1`, the activity change, negative = inhibition was inactive: -15.1% (at 56.9 µM (top of the series)) and inactive: 8.61% (at 114 µM (top of the series)).
Regarding `O=[N+]([O-])c1ccc2c(c1)nnn2O`, the activity change, negative = inhibition under setting [1] was inactive: -2.7%.
As to `CN(C)C(=O)c1cc([N+](=O)[O-])cc2c1-c1c(cc([N+](=O)[O-])cc1[N+](=O)[O-])C2=O`, under setting [1], the activity change, negative = inhibition is inactive: -29.3%.
The same measure, in the same setting: next, `CN(C(=O)Cc1ccc(Cl)c(Cl)c1)[C@H]1CC[C@@]2(CCCO2)C[C@@H]1N1CCCC1`: inactive: 4.61%; `NC(=O)Nc1ccc([As](=O)(O)O)cc1`: inactive: -8.51%; `O=C(O)COc1ccc([As](=O)(O)O)cc1[N+](=O)[O-]`: inactive: 7.88% [at 56.9 µM].
Consider `Nc1ccccc1[As](=O)(O)c1ccccc1`, for which the activity change, negative = inhibition under setting [1] is inactive: -5.41%.
`CCOP1(=S)c2c(C)nn(CCC#N)c2N=C(c2ccccc2F)N1C` (stereo not given): the activity change, negative = inhibition under setting [1] was inactive: 0.546%.
`O=P(Nc1nccs1)(Oc1ccccc1)Oc1ccccc1`: the activity change, negative = inhibition under setting [1] is inactive: -3.23%.
With `O=P(Nc1nccs1)(c1ccccc1)c1nc2ccccc2s1` (stereo not given), the activity change, negative = inhibition under setting [1] is inactive: -119%.
`COc1cc(C2NCCC3(OCCO3)C2(C)C)cc(OC)c1OC` (stereo not given): under setting [1], the activity change, negative = inhibition is inactive: -34.2%.
For the compound `CCOP(=O)(Nc1cccc2ccccc12)OCC`, under setting [1], the activity change, negative = inhibition was inactive: 11.9%.
On the same count and under the same terms, the same measure for `Nc1cccc2c([As](=O)(O)O)cccc12`: inactive: -31.9%; for `Cc1ccc(NCCc2c([N+](=O)[O-])cc([N+](=O)[O-])cc2[N+](=O)[O-])cc1`: inactive: -45.5%.
The same measure, in the same setting: next, `CCCOP(=S)(Nc1nc(N)cc(=O)[nH]1)OCCC`: inactive: 3.37%.
On to `Cc1cccc(OCC(=O)OC2CN3CCC2CC3)c1` (stereo not given), for which, under setting [1], the activity change, negative = inhibition is inactive: 14.1%.
Regarding `O=[As](O)(c1cccc(O)c1)c1cccc(O)c1`, the activity change, negative = inhibition under setting [1] was inactive: -2.26%.
For `O=C(OC1CN2CCC1CC2)c1ccc(Cl)cc1` (stereo not given), under setting [1], the activity change, negative = inhibition was inactive: -7.72%.
Still for that read-out and setting: next, `CN(C(=O)Cc1ccc(Cl)c(Cl)c1)[C@@H]1CC[C@]2(CCCO2)C[C@H]1N1CCCC1`: inactive: 80% [at 56.9 µM] and inactive: -6.75% [at 56.9 µM].
On the same count and under the same terms, next, `O=[As](O)(O)c1cccnc1`: inactive: 25.9% [at 11.4 µM]; `COc1cc(C(=O)NCC2(N3CCOCC3)CCCCC2)cc(Cl)c1OC(C)C`: inactive: 11%; `CS(=O)(=O)c1ccc(Cl)c(NC(=O)COC(=O)C(O)(c2ccccc2)c2ccccc2)c1`: inactive: 1.1%.
